From article PMC4790425 (Journal of medicinal chemistry, 2015)

Sequences of proteins named here, by UniProt entry; tags and fusion partners are left off.
UniProt P32238, whole entry: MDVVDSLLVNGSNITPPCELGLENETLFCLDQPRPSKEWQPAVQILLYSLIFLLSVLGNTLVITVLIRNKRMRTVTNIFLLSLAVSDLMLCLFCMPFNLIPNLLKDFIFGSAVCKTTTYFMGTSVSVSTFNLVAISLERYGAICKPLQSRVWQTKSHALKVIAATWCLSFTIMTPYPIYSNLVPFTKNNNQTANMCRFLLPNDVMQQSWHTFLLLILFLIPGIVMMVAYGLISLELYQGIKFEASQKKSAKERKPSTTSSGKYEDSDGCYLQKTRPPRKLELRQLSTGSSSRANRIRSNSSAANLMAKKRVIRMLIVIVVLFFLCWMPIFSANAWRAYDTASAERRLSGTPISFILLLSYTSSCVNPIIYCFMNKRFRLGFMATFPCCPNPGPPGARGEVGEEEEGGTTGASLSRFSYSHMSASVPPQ
UniProt P32238, whole entry V125A: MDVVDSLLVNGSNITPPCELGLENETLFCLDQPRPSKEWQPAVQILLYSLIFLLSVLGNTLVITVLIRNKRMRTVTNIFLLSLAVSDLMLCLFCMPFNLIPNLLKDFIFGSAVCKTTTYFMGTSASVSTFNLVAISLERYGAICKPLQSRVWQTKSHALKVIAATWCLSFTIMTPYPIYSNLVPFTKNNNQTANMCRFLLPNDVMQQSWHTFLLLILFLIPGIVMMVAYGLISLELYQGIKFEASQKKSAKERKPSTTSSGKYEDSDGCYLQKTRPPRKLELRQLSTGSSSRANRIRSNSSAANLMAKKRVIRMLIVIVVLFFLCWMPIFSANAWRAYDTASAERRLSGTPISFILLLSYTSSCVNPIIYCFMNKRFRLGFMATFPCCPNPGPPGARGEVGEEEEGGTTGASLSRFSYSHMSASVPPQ

Legend:
CCK2R WT [1] = target: T1, CCK2R WT (Homo sapiens, UniProt P32239); assay: Competition binding with 125I-CCK, CHO membranes
T1 sequence (P32239 1-447): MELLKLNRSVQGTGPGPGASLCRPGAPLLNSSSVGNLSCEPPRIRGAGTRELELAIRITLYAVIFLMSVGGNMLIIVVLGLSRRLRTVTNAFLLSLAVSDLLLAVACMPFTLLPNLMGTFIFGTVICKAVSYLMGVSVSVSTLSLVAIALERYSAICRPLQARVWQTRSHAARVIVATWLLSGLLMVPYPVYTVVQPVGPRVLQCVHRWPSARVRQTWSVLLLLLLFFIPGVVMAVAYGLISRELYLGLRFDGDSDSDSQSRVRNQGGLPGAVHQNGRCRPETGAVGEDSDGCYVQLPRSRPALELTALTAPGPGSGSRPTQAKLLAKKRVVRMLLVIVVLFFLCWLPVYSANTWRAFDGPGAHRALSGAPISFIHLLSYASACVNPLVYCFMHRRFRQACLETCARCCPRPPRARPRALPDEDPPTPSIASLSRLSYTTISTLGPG

CCK2R WT [2] = target: T1, CCK2R WT; assay: Competition binding with 125I-BDZ-2, CHO membranes
CCK1R WT [3] = target: T2, CCK1R WT (Homo sapiens, UniProt P32238); assay: Competition binding with 125I-CCK, CHO membranes
CCK1R V125A (V3.36A) = CCK1R V125A (V3.36A) (Homo sapiens, UniProt P32238, V125A); assay: cell-based
CCK1R WT [4] = target: T2, CCK1R WT; assay: Competition binding with 125I-BDZ-1, CHO membranes
CCK1R WT [5] = target: T2, CCK1R WT; assay: cell-based

Kb (CCK2R WT [1]) [µM]	Kb (CCK2R WT [2]) [µM]	IC50 (CCK1R WT [3]) [µM]	Kb (CCK1R WT [3]) [µM]	EC50 (CCK1R V125A (V3.36A)) [µM]	IC50 (CCK1R WT [4]) [µM]	Kb (CCK1R WT [4]) [µM]	EC50 (CCK1R WT [5]) [µM]	SMILES
0.0708	0.0245	0.0302	0.0245	0.00309	0.513	0.166		CC(C)N(Cc1ccccc1)C(=O)CN1C(=O)[C@@H](Cc2c[nH]c3ccccc23)c2nnc(-c3ccccc3)n2-c2ccccc21 [CE-326597, N-benzyl-2-[(4S)-4-(1H-indol-3-ylmethyl)-5-oxo-1-phenyl-4,5-dihydro-6H-[1,2,4]triazolo[4,3-a][1,5]benzodiazepin-6-yl]-N-isopropylacetamide]
0.214	0.0692	0.0389	0.0288			0.912	0.000417	Cc1cc(C)cc(C[C@H]2CCCCN2C(=O)CN2C(=O)[C@@H](Cc3n[nH]c4ccccc34)c3nnc(-c4ccccc4)n3-c3ccccc32)c1 [PF-04756956, (4S)-6-{2-[(2R)-2-(3,5-dimethylbenzyl)piperidin-1-yl]-2-oxoethyl}-4-(1H-indazol-3-ylmethyl)-1-phenyl-4H-[1,2,4]triazolo[4,3-a][1,5]benzodiazepin-5(6H)-one]
